The target in the test is T1, Tyrosine-protein kinase receptor TYRO3 (Homo sapiens, UniProt Q06418).
T1 sequence (Q06418 whole entry): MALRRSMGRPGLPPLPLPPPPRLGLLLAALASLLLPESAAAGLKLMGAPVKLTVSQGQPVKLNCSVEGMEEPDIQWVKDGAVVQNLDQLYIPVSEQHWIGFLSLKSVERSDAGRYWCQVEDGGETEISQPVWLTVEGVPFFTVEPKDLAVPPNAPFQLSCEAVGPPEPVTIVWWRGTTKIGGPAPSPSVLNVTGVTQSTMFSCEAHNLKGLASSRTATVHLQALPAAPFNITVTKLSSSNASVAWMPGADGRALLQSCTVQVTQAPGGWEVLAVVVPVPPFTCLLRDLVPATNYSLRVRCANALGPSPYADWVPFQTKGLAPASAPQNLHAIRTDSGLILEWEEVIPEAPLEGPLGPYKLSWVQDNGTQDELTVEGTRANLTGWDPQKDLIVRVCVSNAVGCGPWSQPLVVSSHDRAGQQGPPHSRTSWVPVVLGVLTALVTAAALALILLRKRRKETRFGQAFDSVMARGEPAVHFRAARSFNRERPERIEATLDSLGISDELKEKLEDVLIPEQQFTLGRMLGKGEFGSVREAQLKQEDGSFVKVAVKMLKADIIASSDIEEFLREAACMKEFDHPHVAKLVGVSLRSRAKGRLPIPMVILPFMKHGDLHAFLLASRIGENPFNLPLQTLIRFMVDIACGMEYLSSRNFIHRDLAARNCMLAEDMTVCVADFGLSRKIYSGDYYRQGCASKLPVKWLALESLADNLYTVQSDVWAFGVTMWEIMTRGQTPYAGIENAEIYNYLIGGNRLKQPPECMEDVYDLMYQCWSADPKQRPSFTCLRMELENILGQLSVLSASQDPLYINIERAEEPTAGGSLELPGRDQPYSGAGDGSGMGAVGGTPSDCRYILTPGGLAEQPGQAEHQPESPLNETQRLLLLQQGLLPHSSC
Briefly: Inhibition of Tyro3 using EFPIYDFLPAKKK-CONH2 as substrate after 180 mins by microfluid capillary electrophoresis assay.

Broadly, the IC50 is the midpoint of a concentration-inhibition curve. Read a low IC50 as higher potency.

Bounds are passed on as bounds.

`CNc1ncc2c(C(C)C)nn(CC3CCCNC3)c2n1` (stereo unspecified) displayed an IC50 greater than 30 µM.

For the origin of these results see BindingDB's records for doi:10.1021/ml200239k (2012).
